System: MDCKII-MDR1 cells
Experiment: MDCKII-MDR1 permeability

COc1cc(Nc2c(C#N)cnc3cc(OCCCN4CCN(C)CC4)c(OC)cc23)c(Cl)cc1Cl [Bosutinib, bosutinib, reference compound]
efflux (P-gp), in words: still substrates for P-gp

— patent US20260297031A1, “HYDROXYLAMINE-BASED BCR-ABL1 INHIBITORS FOR TREATMENT OF CANCER” (University of Georgia Research Foundation, Inc., priority 2023, published 2026)
